Laboratory results reported in patent US8877779B2 (priority 2007, dated 2014).

molecular target: human ORL-1 receptor (Homo sapiens, UniProt P41146); assay: ORL-1 receptor-binding test ([3H]-nociceptin); conditions: read-out: Affinity Ki (nM) ORL-1, membrane of HEK293 cell expressing human ORL-1 receptor

Row | Compound | Ki [nM]
1 | CNC(=O)Cn1c(=O)n(C2CCN([C@@H]3CCCc4ccccc43)CC2)c2ccccc21 | < 10
2 | CNC(=O)Cn1c(=O)n(C2CCN(C3CCc4ccccc43)CC2)c2ccccc21 (stereo not drawn) | < 10
3 | CNC(=O)Cn1c(=O)n(C2CCN(C3CCCc4ccccc43)CC2)c2ccccc21 (stereo not drawn) | < 10
4 | CNC(=O)Cn1c(=O)n(C2CCN(C3Cc4c(Cl)ccc5cccc3c45)CC2)c2ccccc21 (stereo not drawn) | < 10
5 | CNC(=O)Cn1c(=O)n(C2CCN(C3Cc4ccc(Cl)c5cccc3c45)CC2)c2ccccc21 (stereo not drawn) | < 10
6 | CNC(=O)Cn1c(=O)n(C2CCN([C@@H]3Cc4ccc(F)c5cccc3c45)CC2)c2ccccc21 | < 10
